Reference: PubChem BioAssay AID601 (SRMLSC, 2007)
This is a selection; strong and weak results do not stand in their true shares. Some results for these compounds are left out of this collection, so the calls shown say nothing about other tests. Active and inactive are the calls of the source.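 Rule for the calls: active = viability loss from added drug above about 55%, and viability with drug at most 40%, in both replicates (limit read from the data, passing the limit was not always enough); inconclusive = both conditions met in only one replicate; inactive = neither replicate meets both conditions.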

Assay: MRP1 drug-resistance reversers in H69AR cells – cell-based, doxorubicin co-treatment, pilot screen (AID 601)
Conditions: H69AR cells + 2 uM doxorubicin, CellTiter-Glo, 72 h; at 10 µM; stronger effect = higher value
In the case of O=C(OC1CN2CCC1CC2)C(CO)(c1ccccc1)c1ccccc1 (stereo unspecified), the differential viability (reversal) is reported as inactive: 10.8%.
